# Experimental data from ChEMBL document CHEMBL1781953, “Synthesis and antimycobacterial activity of 5-formylaminopyrimidines; analogs of antibacterial purines” (Bioorg Med Chem Lett, 2009).
# System: Escherichia coli
# Assay: Antibacterial activity against Escherichia coli
# Format: functional
sequence,measurement,value
GENTAMICIN,MIC,0.5 µg/mL
